# Experimental data published in patent EP4847044A1, “PHARMACEUTICAL COMPOSITION COMPRISING PRMT5 INHIBITOR AND CHEMOTHERAPEUTIC AGENT” (dated 2026).
# Columns and labels:
# [1] = tested on: LU99 MTAP (-/-) deleted cells; test: Cell proliferation inhibition (CTG luminescence, 144 hours), single agents and combination test, CI by Calcusyn; conditions: single agent
# [2] = tested on: NCI-H292 MTAP (-/-) deleted cells; test: as above; conditions: single agent
structure (smiles),measurement,setting,value
CC(=O)O[C@@]12CO[C@@H]1C[C@H](O)[C@@]1(C)C(=O)[C@H](O)C3=C(C)[C@@H](OC(=O)[C@H](O)[C@@H](NC(=O)OC(C)(C)C)c4ccccc4)C[C@@](O)([C@@H](OC(=O)c4ccccc4)[C@H]21)C3(C)C,IC20,[1],1.28 nM
same,Max Inh%,[1]; maximum inhibition rate,100%
same,IC20,[2],0.63 nM
